pKd: −log10 of the molar value.

By UniProt entry, the sequences of proteins in these tests, tags left out. Residues count along the entry.
UniProt P28335, 33-458: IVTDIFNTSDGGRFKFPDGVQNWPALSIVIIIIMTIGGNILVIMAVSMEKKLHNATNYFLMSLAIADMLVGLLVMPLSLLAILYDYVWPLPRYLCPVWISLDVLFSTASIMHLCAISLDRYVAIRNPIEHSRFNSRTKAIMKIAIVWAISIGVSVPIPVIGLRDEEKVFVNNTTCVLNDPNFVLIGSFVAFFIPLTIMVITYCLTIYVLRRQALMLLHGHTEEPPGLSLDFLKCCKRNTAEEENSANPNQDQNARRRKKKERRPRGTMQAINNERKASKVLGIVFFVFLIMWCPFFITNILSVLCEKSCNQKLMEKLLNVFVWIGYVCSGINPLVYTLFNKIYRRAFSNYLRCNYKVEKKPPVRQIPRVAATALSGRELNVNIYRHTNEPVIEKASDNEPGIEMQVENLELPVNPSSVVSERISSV

Drawing on patent US6239129A, “Cyano-indole serotonin-reuptake inhibitor compounds” (Adir et Compagnie, priority 1999, dated 2001), this text covers Kd for 1 molecule.

For the assay, the target named is 5-HT2c Receptors (Homo sapiens, UniProt P28335). As to the kind of experiment: biochemical. The class given is binding. Particulars: radioligand KD; pH=7.7, 22° C.; read-out: dissociation constant KD. As for the experimental part:
The radioactivity retained on the filters is determined by liquid scintillation counting. The binding isotherms are analysed by non-linear regression to determine the IC50 values.

For `CN1C[C@@H](NS(=O)(=O)N(C)C)C[C@@H]2c3cccc4c3c(cn4C)C[C@H]21` [[^3 H]-mesulergine], the negative logarithm of the Kd (pKd) is 9.27.

One may read the pKd as the Kd on a negative log10 scale, so that one unit is a factor of ten.
